Assay results taken from patent publication US12441689B2 (EpiVario, Inc., priority 2019, dated 2025).
pIC50: −log10 of the molar value.

The chains behind the UniProt entries cited, without tags or fusion partners.
UniProt Q9NR19, whole entry: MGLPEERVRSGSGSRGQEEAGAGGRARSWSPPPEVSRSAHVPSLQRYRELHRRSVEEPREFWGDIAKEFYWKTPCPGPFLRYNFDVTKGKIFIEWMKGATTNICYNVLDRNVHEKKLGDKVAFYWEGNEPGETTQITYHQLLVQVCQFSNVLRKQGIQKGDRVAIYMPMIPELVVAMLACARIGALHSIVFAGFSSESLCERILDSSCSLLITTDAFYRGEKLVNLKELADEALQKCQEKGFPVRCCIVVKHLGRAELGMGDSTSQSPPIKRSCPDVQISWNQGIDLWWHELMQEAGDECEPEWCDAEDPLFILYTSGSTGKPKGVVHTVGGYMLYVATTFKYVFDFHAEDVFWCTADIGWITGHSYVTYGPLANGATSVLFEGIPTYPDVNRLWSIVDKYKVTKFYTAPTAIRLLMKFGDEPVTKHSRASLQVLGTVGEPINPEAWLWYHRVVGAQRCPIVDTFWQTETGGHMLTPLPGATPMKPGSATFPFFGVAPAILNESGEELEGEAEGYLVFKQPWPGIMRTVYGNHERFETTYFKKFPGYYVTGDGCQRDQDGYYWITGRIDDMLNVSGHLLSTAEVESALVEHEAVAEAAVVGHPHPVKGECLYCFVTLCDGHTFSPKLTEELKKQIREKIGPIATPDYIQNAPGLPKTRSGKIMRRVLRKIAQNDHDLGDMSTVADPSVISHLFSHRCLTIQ

Biological target: human ACSS2 protein (Homo sapiens (Human), UniProt Q9NR19)
Experiment: ACSS2 Cell-Free Activity Assay (Cell-Free IC50)
Conditions: read-out: ACSS2 Biochemical IC50; 10 nM human ACSS2 protein, 90 minutes at 37 C, pyrophosphatase-coupled, Biomol Green absorbance at 620 nm

**Q.** `CCC(F)(F)c1cccc(NC(=O)c2oc(-c3ccc(OC(F)F)c(-c4ccccc4)c3)nc2C)c1` was tested. Which pIC50 did it give?
**A.** < 7.00
